# Measurements published in patent US20170280728A1, “ANTIMICROBIAL COMPOSITIONS AND METHODS OF THEIR USE” (CMS TECHNOLOGY, INC.., priority 2014, published 2017).
# Tests used:
# [1] = test system: General Bacteria (bacterial bird rinse); assay: General Bacteria Assay (Vivione RAPID-B Total Plate Count); assay type: cell-based; settings: at about 5 ppm
# [2] = test system: Salmonella enterica serovar Anatum (ATCC #9270); assay: Salmonella Assay (liquid sanitizer exposure, log reduction); assay type: cell-based; settings: fixed chlorine pH operating level of 6.0, at lower ppm
compound,measurement,setting,value
"OCl [chlorine, sodium hypochlorite]",antibacterial effect (in words),[1],negligible antibacterial effect
same,antimicrobial effect (in words),[2],limited antimicrobial effect
